Reference: US5830897A, “α- and β-amino acid hydroxyethylamino sulfonamides useful as retroviral protease inhibitors” (G. D. Searle & Co., priority 1995, dated 1998)

Molecular target: T1, HIV protease (Human immunodeficiency virus type 1 group M subtype B, UniProt P04585)
T1 construct: HIV protease is diluted in the assay buffer to a final enzyme concentration of 12.3 nanomolar, based on a molecular weight of 10,780
Assay type: biochemical
Details: Table 16; enzyme assay
Method: The enzyme method is described below. […] The positive control is MVT-101 (Miller, M. et al, Science, 246, 1149 (1989)] The assay conditions are as follows:
Assay buffer: 20 mM sodium phosphate, pH 6.4
The above described substrate is dissolved in DMSO, then diluted 10 fold in assay buffer. Final substrate concentration in the assay is 80 μM.
The final concentration of DMSO is 14% and the final concentration of glycerol is 18%. The test compound is dissolved in DMSO and diluted in DMSO to 10× the test concentration; 10 μl of the enzyme preparation is added, the materials mixed and then the mixture is incubated at ambient temperature for 15 minutes. The enzyme reaction is initiated by the addition of 40 μl of substrate. The increase in fluorescence is monitored at 4 time points (0, 8, 16 and 24 minutes) at ambient temperature. Each assay is carried out in duplicate wells.

## COc1ccc(S(=O)(=O)N(CC(C)C)C[C@@H](O)[C@H](Cc2ccccc2)NC(=O)c2ccccc2C)cc1 [Table 16 Entry 29]
  IC50: 5 nM
